Key:
narcotised guinea pigs = assay: Blood pressure experiments on guinea pigs, i.v.; assay type: in vivo, guinea pig
mongrel cats = assay: Inotropic and heart-circulatory effectiveness on narcotised cats, intravenous; assay type: in vivo, cat; settings: 6 animals; for blood pressure before / dp/dt (inotropism) before / heart frequency before: before administration

O=[N+]([O-])O[C@H]1CO[C@H]2[C@@H]1OC[C@H]2O[N+](=O)[O-]
blood pressure after (narcotised guinea pigs; 0.25 mg/kg i.v.): 57.0 ± 2.10 mm.Hg
blood pressure Δ (narcotised guinea pigs; 0.25 mg/kg i.v.): -11.70 mm.Hg
blood pressure Δ (narcotised guinea pigs; 1.00 mg/kg i.v.): -19.70 mm.Hg
blood pressure Δ (narcotised guinea pigs; 2.50 mg/kg i.v.): -29.00 mm.Hg
blood pressure before (mongrel cats; 0.25 mg/kg i.v.): 98.8 mm.Hg
dp/dt (inotropism) before (mongrel cats; 0.25 mg/kg i.v.): 7650 mm.Hg/sec
heart frequency before (mongrel cats; 0.25 mg/kg i.v.): 165.3 min⁻¹
blood pressure WD (mongrel cats; 0.25 mg/kg i.v.): 13.0 min
blood pressure after (mongrel cats; 0.25 mg/kg i.v.): 81.2 mm.Hg
blood pressure Δ (mongrel cats; 0.25 mg/kg i.v.): -17.6 mm.Hg
dp/dt (inotropism) after (mongrel cats; 0.25 mg/kg i.v.): 8050 mm.Hg/sec
dp/dt (inotropism) Δ (mongrel cats; 0.25 mg/kg i.v.): +400 mm.Hg/sec
heart frequency after (mongrel cats; 0.25 mg/kg i.v.): 171.7 min⁻¹
heart frequency Δ (mongrel cats; 0.25 mg/kg i.v.): +6.4 min^-1
blood pressure before (mongrel cats; 0.50 mg/kg i.v.): 95.8 mm.Hg
dp/dt (inotropism) before (mongrel cats; 0.50 mg/kg i.v.): 7333 mm.Hg/sec
heart frequency before (mongrel cats; 0.50 mg/kg i.v.): 167.0 min⁻¹
blood pressure WD (mongrel cats; 0.50 mg/kg i.v.): 16.5 min
blood pressure after (mongrel cats; 0.50 mg/kg i.v.): 73.7 mm.Hg
blood pressure Δ (mongrel cats; 0.50 mg/kg i.v.): -22.2 mm.Hg
dp/dt (inotropism) after (mongrel cats; 0.50 mg/kg i.v.): 7667 mm.Hg/sec
dp/dt (inotropism) Δ (mongrel cats; 0.50 mg/kg i.v.): +334 mm.Hg/sec
heart frequency after (mongrel cats; 0.50 mg/kg i.v.): 173.3 min⁻¹
heart frequency Δ (mongrel cats; 0.50 mg/kg i.v.): +6.3 min^-1
blood pressure before (mongrel cats; 1.00 mg/kg i.v.): 96.5 mm.Hg
dp/dt (inotropism) before (mongrel cats; 1.00 mg/kg i.v.): 6983 mm.Hg/sec
heart frequency before (mongrel cats; 1.00 mg/kg i.v.): 166.7 min⁻¹
blood pressure WD (mongrel cats; 1.00 mg/kg i.v.): 16.0 min
blood pressure after (mongrel cats; 1.00 mg/kg i.v.): 69.2 mm.Hg
blood pressure Δ (mongrel cats; 1.00 mg/kg i.v.): -27.3 mm.Hg
dp/dt (inotropism) after (mongrel cats; 1.00 mg/kg i.v.): 7583 mm.Hg/sec
dp/dt (inotropism) Δ (mongrel cats; 1.00 mg/kg i.v.): +600 mm.Hg/sec
heart frequency after (mongrel cats; 1.00 mg/kg i.v.): 174.3 min⁻¹
heart frequency Δ (mongrel cats; 1.00 mg/kg i.v.): +7.6 min^-1
blood pressure before (mongrel cats; 2.50 mg/kg i.v.): 92.5 mm.Hg
dp/dt (inotropism) before (mongrel cats; 2.50 mg/kg i.v.): 6450 mm.Hg/sec
heart frequency before (mongrel cats; 2.50 mg/kg i.v.): 162.0 min⁻¹
blood pressure WD (mongrel cats; 2.50 mg/kg i.v.): > 10 min
blood pressure after (mongrel cats; 2.50 mg/kg i.v.): 60.7 mm.Hg
blood pressure Δ (mongrel cats; 2.50 mg/kg i.v.): -31.8 mm.Hg
dp/dt (inotropism) after (mongrel cats; 2.50 mg/kg i.v.): 7567 mm.Hg/sec
dp/dt (inotropism) Δ (mongrel cats; 2.50 mg/kg i.v.): +1117 mm.Hg/sec
heart frequency after (mongrel cats; 2.50 mg/kg i.v.): 170.7 min⁻¹

From patent US4363805A, “Aminodesoxy-1.4;3.6-dianhydrohexitol nitrates and pharmaceutical composition” (Firma Willmar Schwabe, priority 1980, dated 1982)
